Results: ChEMBL document CHEMBL4043066, “Drug Discovery Targeting Bromodomain-Containing Protein 4” (J Med Chem, 2017)

Protein sequences, listed by entry. Tags and fused reporters are not part of them.
UniProt P25440, whole entry: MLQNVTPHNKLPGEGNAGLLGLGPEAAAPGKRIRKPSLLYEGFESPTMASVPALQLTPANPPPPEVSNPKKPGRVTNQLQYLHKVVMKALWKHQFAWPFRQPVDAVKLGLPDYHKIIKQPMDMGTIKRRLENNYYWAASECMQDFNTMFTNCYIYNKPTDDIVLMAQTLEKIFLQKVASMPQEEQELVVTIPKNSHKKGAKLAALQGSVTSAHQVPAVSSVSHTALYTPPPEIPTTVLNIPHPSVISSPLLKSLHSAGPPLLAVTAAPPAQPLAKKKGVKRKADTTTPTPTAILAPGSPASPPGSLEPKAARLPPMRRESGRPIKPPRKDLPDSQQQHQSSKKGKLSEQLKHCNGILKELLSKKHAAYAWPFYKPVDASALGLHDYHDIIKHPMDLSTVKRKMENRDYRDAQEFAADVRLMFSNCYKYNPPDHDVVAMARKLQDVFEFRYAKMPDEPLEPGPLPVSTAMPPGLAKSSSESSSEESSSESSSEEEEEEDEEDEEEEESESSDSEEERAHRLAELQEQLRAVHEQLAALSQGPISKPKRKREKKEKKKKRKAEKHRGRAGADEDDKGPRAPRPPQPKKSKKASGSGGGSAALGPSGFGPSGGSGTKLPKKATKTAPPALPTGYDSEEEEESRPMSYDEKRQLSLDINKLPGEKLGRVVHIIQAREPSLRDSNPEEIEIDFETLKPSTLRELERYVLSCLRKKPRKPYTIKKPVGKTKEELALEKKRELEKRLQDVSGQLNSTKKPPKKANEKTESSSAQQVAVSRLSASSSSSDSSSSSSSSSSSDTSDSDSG

Molecular target: Bromodomain-containing protein 2 (Homo sapiens, UniProt P25440)

## Cc1sc2c(c1C)C(c1ccc(Cl)cc1)=N[C@@H](CC(=O)Nc1ccc(O)cc1)c1nnc(C)n1-2 [BIRABRESIB]
  IC50: 92 to 112 nM
